These are literature values, as cited in PubChem BioAssay AID1811 (Shanghai Institute of Organic Chemistry, 2009).

Some of the results follow. The source made the active and inactive calls. Where no limit is named, active and inactive come without a cut-off here.

For the data set, the system named is thymidylate kinase. Kind of data set: PubChem AID 1811. Conditions: PDB complex binding affinities from literature.

For `Cc1cn([C@H]2C[C@H](O)[C@@H](CO)O2)c(=O)[nH]c1=O`, the compound was called active.
